Yeast mating assay B: variants of the scFv Ab-14

Reference: Li et al. 2023, doi:10.1038/s41467-023-39022-2. File: FLAb, binding data.

All variants were tested on one target, the spike HR2 peptide PDVDLGDISGINAS (SARS-CoV-2).

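The parent was found by panning a naive human phage display library on the peptide. Designed CDR sequences, proposed from the first random library and measured here. Their group label is 14H_En_HC (En: ensemble of fine-tuned language models; HC: hill climbing; a sequence that several methods proposed may carry one label only). The assay is AlphaSeq: two haploid yeast populations carry antibody and antigen on their surface. Pairs that bind mate more often; barcode pairs of the diploids are counted by sequencing. Scores were corrected for input abundance and mapped to Kd with protein pairs of known affinity run in the same pool. There are six technical replicates.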

Parent scFv Ab-14: VH joined to VL by a 15-residue (Gly4Ser)3 linker. Changes lie in the heavy chain CDRs alone.
VH: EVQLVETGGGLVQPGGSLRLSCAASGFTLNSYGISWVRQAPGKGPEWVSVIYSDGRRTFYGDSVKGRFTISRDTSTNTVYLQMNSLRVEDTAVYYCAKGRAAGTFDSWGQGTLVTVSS
VL: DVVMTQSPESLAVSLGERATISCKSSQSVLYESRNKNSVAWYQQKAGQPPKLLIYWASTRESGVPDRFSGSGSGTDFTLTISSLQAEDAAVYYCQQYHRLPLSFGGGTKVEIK

Variants are written as CDR1, CDR2 and CDR3 of the heavy chain (limits as in the source). Parent: GFTLNSYGIS, VIYSDGRRTFYGDSVK, GRAAGTFDS. Affinities are written as log10 Kd with Kd in nM; a lower number is a better binder. A pair that was not seen in that replicate is written "ND"; this usually means weak binding, but a binder can also be missed. The authors' rule: three or more of the six replicates give a measured affinity, fewer mean a poor binder. Nonspecific signal, from three strains lacking the peptide, appeared in 1% of pairings of all heavy chain designs, centred on 2.08 (5% of these signals below 0.84); values are not corrected for it. Also given: how often the same scFv was detected with the empty control strains, with their mean in brackets. Values of this round are not directly comparable with the first-round values of the same sequences.

CDR-H1 | CDR-H2 | CDR-H3 | log10 Kd (nM) by replicate | control signals
GFDLNEYGIS | VIYADGRRTFYADSVK | GEAAGTFLL | 0.70 / 0.19 / -0.23 / 0.63 / 0.01 / -0.09 | 0 of 18
GFDLNEYGIS | VIYADGRRTAYIDSVK | GENAGTFDL | 0.89 / ND / -0.04 / 0.24 / 0.09 / 0.18 | 0 of 18
GFNLNEYGIS | VIYADGRRTFYSDDVK | GEFAGTFDL | 0.10 / 0.57 / 0.06 / -0.24 / 1.27 / 0.03 | 0 of 18
GFDLNEYGIS | VIYADGRRTFYADSVK | GNQAGTFDF | -0.49 / -0.54 / -1.02 / -0.80 / -0.52 / -0.36 | 0 of 18
GFDLNEYGIS | VIYADGRRTAYSDSVK | GNVGGTFDV | -0.03 / -0.27 / -0.29 / -0.31 / -0.07 / -0.05 | 0 of 18
GFTLDEYGIS | VIYADGRRTFYADSVK | GQVAGTFDQ | -0.32 / -0.44 / -0.56 / -0.64 / -0.37 / -0.20 | 1 of 18 (2.05)
GFDLNEYGIS | VIYADGRRTAYSDKVK | GNVGGTFDI | 0.04 / -0.51 / -0.02 / -0.33 / -0.20 / -0.62 | 0 of 18
GFDLNEYGIS | VIYADGRRTSYADSVK | GQLAGTFDQ | -0.42 / -0.71 / -0.64 / -0.68 / -0.76 / -0.55 | 0 of 18
GFDLNEYGIS | VIYADGRRTQYIDSVK | GETAGTFDN | ND / ND / ND / ND / ND / ND | 0 of 18
GFDLNEYGIS | VIYADGRRTAYADNVK | GEVAGTFIV | 0.09 / -0.14 / -0.03 / -0.19 / 0.09 / 0.05 | 0 of 18
GFDLNEYGIS | VIYADGKRTFYADSVK | GSEAGTFNM | 0.25 / -0.40 / -0.02 / -0.20 / 0.23 / 0.24 | 0 of 18
GFDLNEYGIS | VIYADGMRTQYADSVK | GNAAGTFDV | 0.19 / 1.20 / 0.04 / 0.55 / -0.01 / 0.32 | 0 of 18
GFDLNEYGIS | VIYADGRRTAYTDSVK | GQNAGTFDQ | 2.36 / ND / ND / 2.44 / ND / 2.23 | 0 of 18
GFDLNEYGIS | VIYADGRRTFYADSVK | GQVAGTFVS | 0.00 / -0.28 / -0.52 / -0.47 / -0.23 / -0.40 | 1 of 18 (1.75)
GFDLNDYGIS | VIYADGRRTAYTDSVK | GEVAGTFDS | 0.00 / -0.38 / -0.22 / -0.35 / -0.43 / 0.12 | 0 of 18
GFNLNEYGIS | VIYADGKRTFYTDDVK | GEVAGTFDL | -0.12 / -0.20 / -0.46 / -0.52 / -0.08 / -0.36 | 1 of 18 (2.75)
GFDLNEYGIS | VIYADGRRTAYDDSVK | GQVAGTFDD | -0.58 / -0.61 / -0.55 / -0.65 / -0.61 / -0.63 | 0 of 18
GFQLDEYGIS | VIYADGRRTFYQDSVK | GNVAGTFDV | 0.07 / -0.02 / -1.24 / -1.94 / -1.29 / -0.69 | 0 of 18
GFDLEDYGIS | VIYADGRRTAYIDSVK | GEHAGTFDV | 0.08 / -0.38 / -0.40 / -0.33 / 0.07 / -0.17 | 0 of 18
GFTLDEYGIS | VIYADGRRTFYIDSVK | GETAGTFDV | -0.19 / -0.20 / -0.10 / -0.49 / -0.44 / -0.06 | 1 of 18 (2.49)
GFDLNEYGIS | VIYADGMRTFYTDSVK | GEAAGTFDA | -0.21 / -0.09 / -0.29 / -0.29 / -0.29 / 0.08 | 0 of 18
GFDLEDYGIS | VIYADGRRTVYADSVK | GEAAGTFDL | 0.39 / 0.49 / 0.11 / 0.42 / 0.68 / 0.70 | 0 of 18
GFDLNEYGIS | VIYADGRRTFYADSVK | GTEAGTFNM | -1.11 / -0.66 / -0.49 / -1.51 / -1.27 / -1.06 | 0 of 18
GFNLNEYGIS | VIYADGMRTFYADSVK | GGAAGTFDV | -0.50 / -0.70 / -0.71 / -0.45 / -0.57 / -0.54 | 1 of 18 (1.14)
GFSLDEYGIS | VIYADGVRTFYADSVK | GNSAGTFDS | -1.19 / -0.17 / -1.06 / -1.58 / ND / -0.83 | 0 of 18
GFDLDEYGIS | VIYADGRRTFYADSVK | GELAGTFVS | 0.08 / 0.29 / 0.03 / -0.10 / 0.83 / 0.16 | 0 of 18
GFDLNEYGIS | VIYADGRRKFYADSVK | GQLAGTFDV | 0.23 / -0.25 / -0.10 / -0.62 / -0.05 / 0.14 | 0 of 18
GFDLNEYGIS | VIYADGRRTFYADSVK | GEIAGTFDF | 0.54 / 0.89 / ND / ND / 0.54 / 0.41 | 0 of 18
GFDINEYGIS | VIYADGRRTFYADSVK | GNQAGTFDV | -0.35 / -0.09 / -0.63 / -0.58 / -0.37 / -0.48 | 0 of 18
GFDLDEYGIS | VIYADGQRTFYADSVK | GTLAGTFDA | 0.29 / 0.68 / ND / 1.76 / 1.41 / 2.76 | 0 of 18
GFDLNEYGIS | VIYADGRRTFYDDSVK | GQLAGTFDV | -0.25 / -0.55 / -0.68 / -0.94 / -0.90 / -0.51 | 1 of 18 (0.19)
GFDLNEYGIS | VIYADGRRSFYADSVK | GELAGTFDS | -0.82 / -0.67 / -0.76 / -0.87 / -0.71 / -0.31 | 0 of 18
GFDLNEYGIS | VIYADGMRTAYIDSVK | GEQAGTFDL | -0.13 / -0.25 / -0.56 / -0.46 / -0.22 / -0.20 | 1 of 18 (1.50)
GFDLNEYGIS | VIYADGRRTSYIDSVK | GETAGTFDS | 0.58 / 0.02 / 0.56 / 0.46 / 1.06 / 0.62 | 0 of 18
GFDLNEYGIS | VIYADGRRTAYSDSVK | GEAAGTFDM | -0.22 / -0.40 / -0.45 / -0.48 / -0.49 / -0.43 | 0 of 18
GFDLDEYGIS | VIYADGRRTFYSDSVK | GEVAGTFDV | -0.55 / -0.60 / -0.83 / -0.53 / -0.25 / -0.60 | 0 of 18
GFDLNEYGIS | VIYADGRRTFYSDDVK | GNVGGTFDI | 0.34 / 0.06 / -0.03 / -0.33 / -0.33 / -0.16 | 0 of 18
GFDLNEYGIS | VIYADGRRTAYTDSVK | GHVAGTFDL | -0.52 / -0.51 / -0.78 / -0.73 / -0.67 / -0.32 | 0 of 18
GFDLNEYGIS | VIYADGRRTFYADSVK | GTLAGTFDA | -0.39 / -1.25 / -2.12 / -1.74 / -2.00 / -1.12 | 0 of 18
GFDLDEYGIS | VIYADGRRTFYADSVK | GELAGTFDM | 0.04 / -0.16 / 0.13 / 0.14 / 0.34 / 0.26 | 0 of 18
GFDLNEYGIS | VIYADGRRTFYSDSVK | GANAGTFDS | -0.38 / -0.24 / -0.48 / -0.35 / -0.45 / -0.05 | 1 of 18 (1.28)

A selection of 4 entries from above:

CDR-H1,CDR-H2,CDR-H3,log10 Kd (nM) by replicate,control signals
GFDLNDYGIS,VIYADGRRTAYTDSVK,GEVAGTFDS,0.00 / -0.38 / -0.22 / -0.35 / -0.43 / 0.12,0 of 18
GFDLNEYGIS,VIYADGRRTFYADSVK,GTEAGTFNM,-1.11 / -0.66 / -0.49 / -1.51 / -1.27 / -1.06,0 of 18
GFQLDEYGIS,VIYADGRRTFYQDSVK,GNVAGTFDV,0.07 / -0.02 / -1.24 / -1.94 / -1.29 / -0.69,0 of 18
GFDLNEYGIS,VIYADGMRTFYTDSVK,GEAAGTFDA,-0.21 / -0.09 / -0.29 / -0.29 / -0.29 / 0.08,0 of 18